{"source": "patent US20090291075A1", "about": "“BINDING AGENTS AND THEIR USE IN TARGETING TUMOR CELLS” (ALTAREX MEDICAL CORP., priority 2002, published 2009)", "tested_on": "NIH:OVCAR-3 cells", "experiment": "Confocal microscopy for activated caspases (Phi-Phi-Lux, Propidium Iodide counterstain)", "type": "cell-based", "details": "paclitaxel 1 μg/mL", "description": "NIH:OVCAR-3 cells were grown in tissue chamber slides (NUNC) and treated with chemotherapeutic drugs for 4-48 h, washed and stained with Phi-Phi-Lux for 1 h. Cells were washed briefly again, fixed and counterstained with Propidium Iodide prior to analysis by confocal microscopy (Zeiss, Germany)."}
{"smiles": "CC(=O)O[C@H]1C(=O)[C@@]2(C)[C@H]([C@H](OC(=O)c3ccccc3)[C@]3(O)C[C@H](OC(=O)[C@H](O)[C@@H](NC(=O)c4ccccc4)c4ccccc4)C(C)=C1C3(C)C)[C@]1(OC(C)=O)CO[C@@H]1C[C@@H]2O", "note": "[paclitaxel]", "values": [{"measurement": "cells stained positive for activated caspase", "setting": "4 h after treatment, only very few cells PI positive", "value": "more than 60%"}, {"measurement": "cells found dead (PI)", "setting": "24 h time point", "value": "about half of the cells were found dead"}]}
